# The list shows a part of the results, in another mix than the full data. Activity calls are given as the source filed them.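 The calls were made as follows: active = activation factor of the enzyme at least 2-fold when tested at 20 µM; inactive = the rest.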
# Sequences of proteins named here, by UniProt entry; tags and fusion partners are left off. A change or cut given only in a name is not applied to a line headed by its entry.
# UniProt P09923: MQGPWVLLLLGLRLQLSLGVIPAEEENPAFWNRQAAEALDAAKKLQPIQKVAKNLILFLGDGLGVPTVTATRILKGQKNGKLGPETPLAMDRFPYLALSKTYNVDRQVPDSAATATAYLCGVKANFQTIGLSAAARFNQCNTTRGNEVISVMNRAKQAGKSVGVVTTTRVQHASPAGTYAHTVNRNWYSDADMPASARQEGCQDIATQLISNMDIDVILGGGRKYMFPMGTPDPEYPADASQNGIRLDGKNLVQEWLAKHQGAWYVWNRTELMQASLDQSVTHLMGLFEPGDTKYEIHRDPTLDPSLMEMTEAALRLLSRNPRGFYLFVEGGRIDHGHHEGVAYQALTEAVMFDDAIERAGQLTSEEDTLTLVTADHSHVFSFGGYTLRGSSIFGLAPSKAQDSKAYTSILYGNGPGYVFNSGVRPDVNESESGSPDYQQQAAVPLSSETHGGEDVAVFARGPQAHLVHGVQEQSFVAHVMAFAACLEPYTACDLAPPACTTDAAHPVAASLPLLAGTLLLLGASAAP
# Target: Intestinal-type alkaline phosphatase (Homo sapiens) (UniProt P09923)
# Test: enzymatic activation of intestinal alkaline phosphatase – biochemical, luminescence, uHTS, primary screen (AID 2524)
# Conditions: purified human IAP, CDP-Star luminescence, 30 min; at 10 µM; stronger effect = higher value; 1 = vehicle-only enzyme, 0 = enzyme-free background
row,SMILES,activation factor
1,COc1ccc(C2=NCC(CBr)S2)cc1 (stereo not drawn),inactive: 1.06
2,Cc1ccc(NP(=O)(Oc2ccccc2)Oc2ccccc2)nc1,inactive: 1.3
3,O=[N+]([O-])c1cc([N+](=O)[O-])c(CCNc2ccccc2)c([N+](=O)[O-])c1,inactive: 0.912
4,CCc1nc2c(n1)c1c(non1O)c1c2no[n+]1[O-],inactive: 0.802
5,CC(=O)N1C2C3N(C(C)=O)C1C1N(C(C)=O)C(C(N1C(C)=O)N3C(C)=O)N2C(C)=O,inactive: 1.01
6,O=[N+]([O-])c1cccc2n[nH]nc12,inactive: 0.889
7,CCN(/C(=N/P(=O)(N1CCOCC1)N1CCOCC1)N1CCOCC1)c1ccc(OC)cc1,inactive: 0.951
8,Nc1ccc([As](=O)(O)c2ccc(N)cc2)cc1,inactive: 0.992
9,C[N+]1=C2C=CC=CC=C2SC12C([N+](=O)[O-])=CC([N+](=O)[O-])=C[C-]2[N+](=O)[O-] (stereo not drawn),inactive: 1.18
10,CC1CCN(C(=O)Oc2c(Cl)cc(Cl)c3cccnc23)CC1,inactive: 0.866
11,CC(C)=N/N=C(\N)N[N+](=O)[O-],inactive: 1.17
12,CN(C)C(=O)OCCc1n(C)cc[n+]1C,inactive: 0.985
13,O=C(Nc1cc([As](=O)(O)O)ccc1O)c1ccccc1,inactive: 0.785
14,O=[N+]([O-])c1ncn(CCn2ncnc2[N+](=O)[O-])n1,inactive: 1.03
15,CC(C)(C)C(=O)NC(Sc1ccncn1)C(Cl)(Cl)Cl (stereo not drawn),inactive: 1.1
16,O=[N+]([O-])c1cccc(NC2=NCC(CBr)S2)c1 (stereo not drawn),inactive: 0.905
17,O=P(Nc1nc2ccc(Cl)cc2s1)(c1ccccc1)c1ccccc1,inactive: 1.21
18,O=C(O)c1ccccc1[As](=O)(O)O,inactive: 0.972
19,CC(=O)Nc1ccc([As](=O)(O)O)cc1,inactive: 0.892
20,CCOP(=O)(Nc1ccccc1)OCC,inactive: 1.06
21,Cc1cc(SC(NC(=O)c2ccc(F)cc2)C(Cl)(Cl)Cl)ncn1 (stereo not drawn),inactive: 0.91
22,CN(C(=O)Cc1ccc(Cl)c(Cl)c1)[C@H]1CCCC[C@@H]1N1CCCC1,inactive: 1.02
23,Cc1ccc(NP(=O)(Oc2ccccc2F)Oc2ccccc2F)nc1,inactive: 0.915
24,O=[N+]([O-])c1cc([N+](=O)[O-])c(CCN2CCOCC2)c([N+](=O)[O-])c1,inactive: 0.789
25,CCN(N=Nc1nonc1N)c1nonc1N,inactive: 0.978
26,CN(C(=O)Cc1ccc(Cl)c(Cl)c1)[C@H]1CCCC[C@H]1N1CCCC1,inactive: 0.922

row,SMILES,activation factor
1,Cc1ccc(N/C(=N/P(=O)(N2CCOCC2)N2CCOCC2)N2CCOCC2)cc1,inactive: 0.985
2,NC(=O)c1cc([N+](=O)[O-])cc([N+](=O)[O-])c1N,inactive: 1.08
3,Clc1ccc(Cl)c(NC2=NCC(CBr)S2)c1 (stereo not drawn),inactive: 0.86
4,CN1CCCC(OC(=O)C(c2ccccc2)c2ccccc2)C1 (stereo not drawn),inactive: 1
5,COc1ccccc1OP(=O)(Nc1ccc(C)cn1)Oc1ccccc1OC,inactive: 1.16
6,Cc1ccc(OP(=O)(Nc2nccs2)Oc2ccc(C)cc2)cc1,inactive: 1.18
7,Oc1ccccc1CNc1ccccn1,inactive: 0.973
8,Cc1c2non([O-])c-2c(C)[n+](=O)[n+]1[O-],inactive: 0.903
9,O=C(NC(Sc1ccncn1)C(Cl)(Cl)Cl)c1ccccc1 (stereo not drawn),inactive: 1.01
10,CC(C)CC(=O)NC(Sc1ccc(Cl)cc1)C(Cl)(Cl)Cl (stereo not drawn),inactive: 1.18
11,Nc1cc(N)c2nonc2c1[N+](=O)[O-],inactive: 0.984
12,O=P1(Nc2nc3ccc(Cl)cc3s2)COc2ccccc2O1 (stereo not drawn),inactive: 1.04
13,CCOc1ccc(C2=NCC(CBr)S2)cc1 (stereo not drawn),inactive: 0.965
14,CC(C)(C)C(=O)NC(Sc1ccccc1)C(Cl)(Cl)Cl (stereo not drawn),inactive: 0.965
15,Cc1ccccc1CN(C)C(=O)COC(=O)C(O)(c1ccccc1)c1ccccc1,inactive: 0.967
16,C[C@@H]1C=CCP(=O)(Oc2ccccc2)O1 (stereo partly drawn),inactive: 1.04
17,C[C@H]1OP(=O)(Oc2ccccc2)C[C@@H]2O[C@@H]21 (stereo partly drawn),inactive: 0.953
18,CC(=O)c1ccc(N2CC2c2ccncc2)cc1 (stereo not drawn),inactive: 0.74
19,CC(=O)Nc1ccc([As](=O)(O)O)c(O)c1,inactive: 1.12
20,CC(=O)Nc1ccc(Oc2c([N+](=O)[O-])cc([N+](=O)[O-])cc2[N+](=O)[O-])cc1,inactive: 1.03
21,c1ccc(-c2nn[nH]n2)c(-c2nn[nH]n2)c1,inactive: 1.09
22,Cc1ccc(NP(=O)(Oc2cccc(C)c2)Oc2cccc(C)c2)nc1,inactive: 1.18
23,CCOC(=O)NC(Sc1ccccc1)C(Cl)(Cl)Cl (stereo not drawn),inactive: 0.836
24,O=C(NC1CCS(=O)(=O)C1)NP(=S)(Oc1ccccc1)Oc1ccccc1 (stereo not drawn),inactive: 0.969
25,CCNC(=S)/N=C(\N)N[N+](=O)[O-],inactive: 0.929
26,O=C(OC1CN2CCC1CC2)c1ccccc1 (stereo not drawn),inactive: 1.09

row,SMILES,activation factor
1,CCC(=O)N1C2C3N(C(=O)CC)C1C1N(C(=O)CC)C(C(N1C(=O)CC)N3C(=O)CC)N2C(=O)CC,inactive: 1.06
2,COC(=O)c1cc2c(s1)N=C(c1ccccc1)N(C)P2(=O)N1CCOCC1 (stereo not drawn),inactive: 1.05
3,CC(=O)NC(SC(=S)N(CC(C)C)CC(C)C)C(Cl)(Cl)Cl (stereo not drawn),inactive: 1.29
4,Cc1ccc(OP(=O)(Nc2ccccn2)Oc2ccc(C)cc2)cc1,inactive: 1.09
5,Cc1ccccc1OP(=O)(Nc1ccccn1)Oc1ccccc1C,inactive: 1.1
6,CC(NC(=O)COC(=O)C(O)(c1ccccc1)c1ccccc1)c1ccccc1 (stereo not drawn),inactive: 0.973
7,CN(C)C(=O)Oc1noc2ccccc12,inactive: 0.905
8,CN(C)C1(CNC(=O)c2ccc(Cl)c(S(N)(=O)=O)c2)CCCCC1,inactive: 0.77
9,O=P(Nc1ccccn1)(c1ccc(Br)cc1)c1ccc(Br)cc1,inactive: 1.11
10,O=P(Nc1nc2ccccc2s1)(c1ccccc1)c1ccccc1,inactive: 1.01
11,C[C@H]1OP(=O)(Oc2ccccc2)[C@H](O)[C@H](O)[C@H]1N=[N+]=[N-] (stereo partly drawn),inactive: 1.01
12,O=[As](O)(c1ccccc1)c1ccc(O)cc1,inactive: 1.07
13,O=[N+]([O-])c1ncn(CCn2cnc([N+](=O)[O-])n2)n1,inactive: 1
14,O=C(OC1CN2CCC1CC2)c1cccc(Cl)c1 (stereo not drawn),inactive: 1.05
15,Nc1ccc([As](=O)(O)c2ccc([N+](=O)[O-])cc2)cc1,inactive: 0.966
16,C(Cc1nn[nH]n1)Cc1nn[nH]n1,inactive: 0.97
17,O=P(Nc1nccs1)(c1ccccc1)c1ccccc1,inactive: 1.04
18,CC(C)C(=O)NC(Sc1ccccc1)C(Cl)(Cl)Cl (stereo not drawn),inactive: 0.96
19,c1nnnn1CCn1cnnn1,inactive: 1.04
20,CCC1=CC2Cc3nc4ccc(Cl)cc4c(N)c3C(C1)C2 (stereo not drawn),inactive: 0.961
21,O=P1(Nc2ccccn2)COc2ccccc2OC1,inactive: 1.16
22,CCOP(=O)(NC(=NC(C)c1ccccc1)NC(C)c1ccccc1)OCC (stereo not drawn),inactive: 1.09
23,CN(CCCl)Cc1cc(Cl)c(NC2=NCCN2)c(Cl)c1,inactive: 0.901
24,CCOP(=O)(Nc1ccc(C)cn1)OCC,inactive: 0.844
25,Clc1n[nH]nc1-c1nn[nH][15n]1,inactive: 0.964
26,CC(C)(C)C(=O)NC(Sc1ncccn1)C(Cl)(Cl)Cl (stereo not drawn),inactive: 0.992

row,SMILES,activation factor
1,COc1ccccc1CNC(=O)COC(=O)C(O)(c1ccccc1)c1ccccc1,inactive: 0.922
2,CN(C(=O)Cc1ccc(Cl)c(Cl)c1)[C@@H]1CCCC[C@H]1N1CCCC1,inactive: 1.07
3,CC(C)/C=N\N=C(\N)N[N+](=O)[O-],inactive: 0.879
4,O=[As](O)(c1ccccc1Br)c1ccccc1Br,inactive: 1.16
5,CC1(CBr)Cn2c(nc3ccccc3c2=O)S1 (stereo not drawn),inactive: 0.966
6,Cc1nn(-c2ccccc2)c2c1P(=O)(N1CCOCC1)N(C)C(c1ccccc1)=N2 (stereo not drawn),inactive: 1.01
7,Cc1ccc(C(=O)OC2CN3CCC2CC3)cc1 (stereo not drawn),inactive: 0.917
8,CC1CCC(C(C)C)C(OP(=O)(Nc2ccccn2)c2ccccc2)C1 (stereo not drawn),inactive: 0.948
9,CN(C)C1(CNC(=O)c2ccc(S(C)(=O)=O)cc2)CCCCC1,inactive: 1.08
10,O=C(/C=C/c1ccccc1)OC1CN2CCC1CC2 (stereo not drawn),inactive: 0.96
11,O=P1(Nc2ncccn2)COc2ccccc2OC1,inactive: 0.939
12,Nc1cccc([As](=O)(O)c2ccccc2)c1,inactive: 1.12
13,NS(=O)(=O)c1cccc(NC(=O)COC(=O)C(O)(c2ccccc2)c2ccccc2)c1,inactive: 1.09
14,O=P1(Nc2ccc(Br)cn2)COc2ccccc2OC1,inactive: 1.11
15,Cc1ccc(OCC(=O)OC2CN3CCC2CC3)cc1 (stereo not drawn),inactive: 1.09
16,O=[As](O)(c1cccs1)c1cccs1,inactive: 1.04
17,CCOP1(=S)c2c(C)nn(CCC#N)c2N=C(c2ccccc2F)N1C (stereo not drawn),inactive: 0.951
18,O=P(Nc1nccs1)(c1ccccc1)c1nc2ccccc2s1 (stereo not drawn),inactive: 1.05
19,O=P(Nc1nccs1)(Oc1ccccc1)Oc1ccccc1,inactive: 1.11
20,CS(=O)(=O)c1cc([N+](=O)[O-])c2no[n+]([O-])c2c1,inactive: 1.09
21,O=C(O)COc1ccc([As](=O)(O)O)cc1[N+](=O)[O-],inactive: 0.86
22,Nc1ccccc1[As](=O)(O)c1ccccc1,inactive: 0.992
23,NC(=O)Nc1ccc([As](=O)(O)O)cc1,inactive: 1.14
24,N#CCCN(C(=O)COC(=O)C(O)(c1ccccc1)c1ccccc1)c1ccc(F)cc1,inactive: 1.07
25,CN(C(=O)Cc1ccccc1)[C@@H]1CC[C@]2(CCCO2)C[C@H]1N1CCCC1,inactive: 0.997

# — PubChem BioAssay AID2524 (Sanford-Burnham Center for Chemical Genomics, 2010)
